Nrf2 inh: Nrf2 pathway inhibition; Potency, µM (top dose mostly 46 µM), hits mostly inhibitors; AID 504444; 360,000 tested, 2.1% active; A549 ARE-Fluc reporter, luciferase luminescence, 18-24 h; note: nearly all actives have a fitted effect of over 60% in size
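Two sequential reads on A549 ARE_Fluc cells exposed to compound for 18-24 h: a CellTiter-Fluor fluorescence read for viability, then a luciferase luminescence read for Nrf2/ARE activity.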
A549 viability: counter-screen for Nrf2 inhibitors: cytotoxicity in A549 cells. 390,000 tested, 0.16% active. A549 ARE-Fluc cells, CellTiter-Fluor viability, 18-24 h. Potency, µM (doses to about 46 µM), actives largely listed as inhibitors. AID 504648
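A549 ARE_Fluc cells in 5% FBS OPTI-MEM were exposed to compounds in concentration-response for 18-24 h at 37 deg C. Viability was read by CellTiter-Fluor fluorescence (Ex 405/Em 525) after 30 min, before the luciferase read.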
Mito fusion yeast: inhibitors of mitochondrial division or activators of mitochondrial fusion. S. cerevisiae fusion-defective mutant growth rescue, CellTiterGlo 48 h. Potency, µM (series often up to 46.1 µM), actives largely listed as activators. 320,000 tested, 0.23% active. AID 485298; note: nearly all actives have a fitted effect of over 45% in size
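Yeast fusion mutant, YPEG (non-fermentable carbon), compound, 48 h at 37C non-permissive; CellTiterGlo added, 10 min RT, luminescence read. Rescued growth = division inhibition.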
miR-21 FLuc: miR-21 reporter, rising signal | AID 2288 | HeLa miR-21 FLuc reporter, luciferase, 48 h | 340,000 tested, under 10 active | Potency, µM (titrated, usually from 38.3 µM); active = well fitted rising curve with a large enough effect; inconclusive = small, poorly fitted or top-dose-only effect; inactive = no such curve, though single readings can be large or run the other way;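 also: miR-21 action dims this reporter so a rising signal means less miR-21 action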
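Using DMEM plus 10% FBS, HeLa miR-21-FLuc cells are incubated with test compounds (final up to about 40uM) for 48 hours; firefly luciferase signal is then imaged following reagent-mediated lysis.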
Glioma ERSR ind: ER stress response induction in glioma; U87-MG GRP78 promoter luciferase reporter, 16 h; Potency, µM, most hits filed as activators; 420,000 tested, 0.02% active; AID 602332; note: series mostly up to about 76 µM; nearly all actives have a fitted effect of over 35% in size
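ERSR induction read as luciferase luminescence (Bright-Glo, 10 min at room temperature) in stably transfected human U87-MG glioma cells exposed to compounds for 16 h, using GRP78 as sensor.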
Nrf2 ARE act: Nrf2 pathway activation. 410,000 tested, 0.31% active. AREc32 ARE-luciferase reporter (MCF7-derived line), luminescence, 24 h. Potency, µM (series often up to 46.1 µM), most hits filed as activators; note: nearly all actives have a fitted effect of over 65% in size
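Luciferase luminescence (Steady-Glo, 30 min at room temperature) served as the read-out of ARE activation in AREc32 cells treated with compounds for 24 hr at 37 deg C.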
A number is an active result; 0 = inactive; ? = inconclusive; - = no result; ! = not confirmed by another sample. This is a sample that favours compounds with a hit; in the whole collection about 2.3% have one here. Unless noted, calls come from the whole dose curve; as a rule, active = well fitted curve in the direction sought with a large enough effect; inconclusive = small, poorly fitted or top-dose-only effect, or another doubt; inactive = no such curve, though single readings can be large; an effect the other way counts as inactive or inconclusive.

SMILES | Nrf2 inh | A549 viability | Mito fusion yeast | miR-21 FLuc | Glioma ERSR ind | Nrf2 ARE act
O=S(=O)(NC1CCCC1)c1ccc(S(=O)(=O)N(Cc2cccs2)CC2CCCO2)cc1 (configuration not stated) | 18µM | 0 | 0 | 0 | 0 | 0
COc1ccc(NS(=O)(=O)c2cc(NC(=O)C3CC3)ccc2N2CCCCC2)cc1 | 16µM | 0 | 0 | 0 | 0 | 0
COc1ccccc1NS(=O)(=O)c1cc(NC(=O)c2cccnc2)ccc1N1CCCCC1 | 21µM | 0 | - | - | 0 | 0
COc1ccccc1NS(=O)(=O)c1cc(NC(=O)c2ccc(Cl)nc2)ccc1N1CCCC1 | 0 | 0 | - | - | 0 | 0
COc1ccc(NS(=O)(=O)c2ccc(N3CCCCC3)c(NC(=O)C(C)NC(N)=O)c2)cc1 (configuration not stated) | 0 | 0 | - | - | 0 | 0
O=C(Nc1cccc(C(F)(F)F)c1)Nc1ccc(N2CCCC2)c(S(=O)(=O)Nc2ccccc2Cl)c1 | 3.3µM | ? | 0 | ? | 0 | 0
COc1ccc(NS(=O)(=O)c2ccc(N3CCCCC3)c(N)c2)cc1 | 6.5µM | 0 | ? | - | 0 | 0
CCCCN1C(=O)C(CC(=O)NC(c2ccccc2)c2ccccc2)CC(C(=O)N(CC)CC)=C1C (configuration not stated) | - | - | - | - | 0 | 0
CCOc1ccccc1N1CCN(Cc2cc3c(cc2[N+](=O)[O-])OCO3)CC1 | 0 | 0 | 0 | 0 | 0 | 0
O=C(CSCc1nc2ccccc2[nH]1)Nc1ccc2ccccc2c1 | 0 | 0 | 0 | 0 | 0 | 0
O=C(CSCc1cccc(CSCC(=O)Nc2ccc3ccccc3c2)n1)Nc1ccc2ccccc2c1 | 13µM | 0 | 0 | ? | 0 | 0
CCOc1cccc(/C=C2\NC(=S)N(c3ccccc3)C2=O)c1O | 0 | 0 | 0 | 0 | 0 | 11µM
CCOc1cc(/C=C2\NC(=S)N(c3c(C)n(C)n(-c4ccccc4)c3=O)C2=O)ccc1O | 0 | ? | 0 | 0 | 0 | 0
N#Cc1cc2sc3nnc(-c4ccncc4)n3c2cc1C#N | 6.5µM | 0 | 0 | 0 | 0 | ?
Cc1ccc(S(=O)(=O)C2(S(=O)(=O)c3ccc(C)cc3)CC2)cc1 | 23µM | 0 | 0 | 0 | 0 | 0
O=S(=O)(c1ccccc1)C1(S(=O)(=O)c2ccccc2)CCCC1 | 0 | 0 | 0 | 0 | 0 | 0
COc1ccc(-c2nn(-c3ccccc3)cc2C(=O)NC(=S)NNC(=O)c2ccncc2)cc1 | 21µM | 0 | 0 | 0 | 0 | 0
COC(=O)c1ccccc1NC(=O)c1sc2nc(C)cc(C)c2c1NC(=O)c1ccccc1OC | - | 0 | - | 0 | 0 | 0
O=C(CCN1CCc2ccccc2CC1)c1ccc2c(c1)OCCO2 | 18µM | - | 0 | ? | 0 | ?
O=C(NC1CCCC1)C1CC(=O)N(CCc2ccccc2)C1 (configuration not stated) | 0 | 0 | 0 | 0 | 0 | 0
N#CCC(=O)Nc1ccc(C(=O)OCC(=O)NC(=O)NCc2ccco2)cc1 | 0 | 0 | - | - | 0 | 0
Cc1ncc(C[n+]2csc(CCO)c2C)c(N)n1 | 15µM! | ? | 0 | 0 | 0 | 0
Cc1ncc(C[n+]2csc(C)c2C)c(N)n1 | 0 | 0 | 0 | 0 | 0 | 0
O=C(CN1CCN(S(=O)(=O)c2ccc(Br)cc2)CC1)N/N=C/c1cc([N+](=O)[O-])ccc1Cl | 0 | 0 | 0 | 0 | 0 | 13µM
O=C(CN1CCN(S(=O)(=O)c2ccc(Br)cc2)CC1)N/N=C/c1ccc(Cl)c([N+](=O)[O-])c1 | 0 | 0 | 0 | 0 | 0 | ?
O=C(COc1ccc(Cl)c(Cl)c1)NN1C(=O)C2C(C1=O)C1C=CC2C12CC2 (configuration not stated) | 0 | 0 | 0 | 0 | 0 | 0
COCCn1c(SCc2nnc(-c3ccc(OC)c(OC)c3)o2)nnc1-c1ccncc1 | ? | 0 | 0 | 0 | 0 | 0
Cc1ccc(N2C(=O)C(Cl)=C(N3CCCCCC3)C2=O)c(C)c1 | 23µM | ? | 0 | 0 | 0 | 0
CC(C)Cc1ccc(C(C)C(=O)Nc2cccnc2)cc1 (configuration not stated) | 6.5µM | 0 | 0 | 0 | 0 | 0

Bioassay records deposited in PubChem by National Center for Advancing Translational Sciences (NCATS).
